The chains behind the UniProt entries cited, without tags or fusion partners. Residues count along the entry.
UniProt P07711, 114-333 limits assumed: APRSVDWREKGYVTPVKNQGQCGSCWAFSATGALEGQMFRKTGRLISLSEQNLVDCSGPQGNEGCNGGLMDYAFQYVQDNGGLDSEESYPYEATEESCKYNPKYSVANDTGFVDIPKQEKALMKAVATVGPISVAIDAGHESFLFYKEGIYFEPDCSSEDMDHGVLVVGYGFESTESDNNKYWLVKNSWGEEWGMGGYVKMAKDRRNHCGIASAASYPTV

In patent US20240150396A1 (The Texas A&M University System, priority 2021, published 2024):

Molecular target: human cathepsin L (Homo sapiens (Human), UniProt P07711)
Assay: Human cathepsin L inhibition, Z-FR-AMC assay
Format: biochemical
Conditions: read-out: Ki* hCatL; pH 5.5, 25° C.
Experimental: Recombinant human cathepsins B and L were purchased from Millipore Sigma and used without further treatment. The solid proteins were dissolved into a solution of 50 mM sodium acetate (pH 5.5), 1 mM EDTA, 1 mM CHAPS, 10% (v/v) DMSO, and 5 mM DTT to final concentrations of […] in 20-mL aliquots, and stored at −80° C. until needed. These samples were then diluted into the same buffer to concentrations of −100 nM, and these dilutions were stored at 4° C. and used daily until depletion.
For assays of cathepsin L and B, inhibitors were evaluated in 0.25-mL reaction mixtures containing a buffer of sodium acetate (pH 5.5), 1 mM CHAPS, 1 mM Na2EDTA, and 5 mM DTT at 25° C. The fluorogenic substrate Cbz-Phe-Arg-7-amino-4-methyl-coumarin (Z-FR-AMC) was dissolved in 100% DMSO, as were all inhibitors, and aliquots of both substrates and inhibitors were added to reaction mixtures to final concentrations of DMSO of 10% (v/v). […] Formation of the fluorescent product AMC was monitored over 30-60-minute time courses for reaction mixtures in 96-well black microplates (Corning Costar®). Rates of peptidolysis of the dipeptide-AMC substrate(s) were measured on either a SpectraMax M5 (Molecular Devices) or a Synergy HTX (Biotek, Wisnooki, VT) microplate reader with λex=360 nm, λem=460 nm in ≥8-sec intervals. Control samples excluded substrate. The measured relative fluorescence units (RFUs) of generated AMC were converted to reaction rates of μM/s by use of a standard curve of known AMC concentrations obtained for both plate readers.

CN1CCN(C(=O)N[C@@H](Cc2ccccc2)C(=O)N[C@H](C=O)Cc2ccc[nH]c2=O)CC1
Ki: 0.002 µM

CC(C)[C@H](NC(=O)OCc1ccccc1)C(=O)N[C@@H](CC1CCCCC1)C(=O)N[C@H](C=O)Cc1ccc[nH]c1=O
Ki: 0.059 µM and 0.05 µM

CC(=O)N[C@H](C(=O)N[C@@H](CC1CCCCC1)C(=O)N[C@H](C=O)Cc1ccc[nH]c1=O)C(C)C
Ki: 0.14 µM

Values joined by “and” are separate entries in the source; they are usually repeats but may differ in a detail not shown here. Equal values may be shown once.
